Experimental data published in ChEMBL document CHEMBL3886525, “Pyrazolo[3,4-c]pyridine compounds and methods of use” (2016).

Chains of the proteins cited; added tags and fusions are not shown.
UniProt P11309, whole entry: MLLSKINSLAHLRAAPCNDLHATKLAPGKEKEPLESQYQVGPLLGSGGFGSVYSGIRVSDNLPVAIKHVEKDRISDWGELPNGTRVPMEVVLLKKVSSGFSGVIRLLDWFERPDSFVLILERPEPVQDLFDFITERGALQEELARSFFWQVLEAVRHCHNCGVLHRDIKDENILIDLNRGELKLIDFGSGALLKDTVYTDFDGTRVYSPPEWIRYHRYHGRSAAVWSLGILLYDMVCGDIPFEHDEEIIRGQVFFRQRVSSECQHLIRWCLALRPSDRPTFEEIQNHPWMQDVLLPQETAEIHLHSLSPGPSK

Biological target: Serine/threonine-protein kinase pim-1 (Homo sapiens, UniProt P11309)
Assay: A fluorescent-labeled Pim-specific peptide substrate, was custom synthesized by American Peptide Company (Sunnyvale, Calif.). Reaction Buffer contained 10 mM HEPES, pH 7.2, 10 mM MgCl2, 0.01% Tween 20, 2 mM DTT.

NC[C@H]1CCN(c2cccc(-c3n[nH]c4cnc(-c5cccnc5)cc34)n2)C1
pKi: 10.07

pKi: −log10 of the molar value.
